Test results as given in PubChem BioAssay (EPA / NIEHS).
Only a part is listed here, and it is no random draw. Records with an inconclusive call do not appear. Active and inactive are the calls of the source. The calls were made as follows: active = hit-call score of the fitted dose curve at least 0.9, where 1 is the maximum; inconclusive = response in the unintended direction; inactive = score below 0.9.

assay: ACEA_ER_80hr: ACEA Biosciences xCELLigence Real-Time Cell Analysis on Estrogen Receptor Agonism for Proliferation (AID 2282667); settings: T47D proliferation, impedance (xCELLigence), 80 h
Protocol: ACEA_ER is a cell-based, single-readout assay that uses T47D, a human breast cell line, with measurements taken at 80 hours after chemical dosing in a 96-well plate, although TO2 (mc0.srcf) used a 384-well plate. Differences in plate size can be ignored given data normalization.ACEA_ER_80hr is one of two assay component(s) measured or calculated from the ACEA_ER assay. It is designed to make measurements of real-time cell-growth kinetics, a form of growth reporter, as detected with electrical impedance signals by Real-Time Cell Electrode Sensor (RT-CES) technology.Data from the assay component ACEA_ER_80hr was analyzed into 1 assay endpoint. This assay endpoint, ACEA_ER_80hr_Positive, was analyzed in the positive analysis fitting direction relative to DMSO as the negative control and baseline of activity. Using a type of growth reporter, measures of the cells for gain-of-signal activity can be used to understand the signaling at the pathway-level as they relate to the gene ESR1. Furthermore, this assay endpoint can be referred to as a primary readout, because this assay has produced multiple assay endpoints where this one serves a signaling function. To generalize the intended target to other relatable targets, this assay endpoint is annotated to the nuclear receptor intended target family, where the subfamily is steroidal.
The xCELLigence system Multi-E-Plate stations were used to measure the time-dependent response to chemicals. Each compound was tested in an eight-point, 1:4 serial dilution series starting at a maximum final concentration of 100 uM. A maximum starting concentration of 0.5% DMSO was present in the 100 uM chemical samples and was diluted along with the test article dilution series. The screen was performed in biological duplicate using two separate, 96-well, E-Plates 96 for each dilution series (n = 2). Positive controls (MG132 and E2) and a negative control (assay media) were tested in quadruplicate on each testing plate. […] Reference compounds were tested with 8 concentrations with 1:5 serial dilutions. All screening was carried out by ACEA Biosciences, Inc. (San Diego, CA). T-47D cells purchased from ATCC were maintained in RPMI1640 media supplemented with 10% characterized fetal bovine serum (FBS). […] Cells were then detached and seeded in E-Plates 96 in assay medium. After overnight monitoring of growth once every hour, compounds were added to […] cells and remained in the medium until the end of the experiment. Cellular responses were then recorded once every 5 min for the first 5 h, and once every hour for an additional 100 h.

Compound | outcome | AC50
Cc1ccc([N+](=O)[O-])c([N+](=O)[O-])c1 | inactive | 
Cc1cccc([N+](=O)[O-])c1[N+](=O)[O-] |  | active: 7.66 µM
COP(C)(=O)OC | inactive | 
CN(C)CCCl | inactive | 
CC(C)OP(C)(=O)OC(C)C | inactive | 
Cc1c([N+](=O)[O-])cccc1[N+](=O)[O-] | inactive | 
O=[N+]([O-])OCC(CO[N+](=O)[O-])(CO[N+](=O)[O-])CO[N+](=O)[O-] |  | active: 3.13 µM
O=[N+]([O-])c1cccc([N+](=O)[O-])c1 | inactive | 
Cc1ccc([N+](=O)[O-])cc1[N+](=O)[O-] | inactive | 
COc1ccc([N+](=O)[O-])cc1[N+](=O)[O-] | inactive | 
